Assay results published in US11999802B2, “Compositions and methods for selective protein degradation” (Novartis AG, priority 2017, dated 2024).

Tested on: HilD-tagged CAR19 / FurON-CAR19
Type: cell-based
[1] = CAR19-16GS-HilD-tag (construct 769), 10 μM lenalidomide

## Nc1cccc2c1CN(C1CCC(=O)NC1=O)C2=O (stereo not shown) [lenalidomide, 3-(4-amino-1-oxoisoindolin-2-yl)piperidine-2,6-dione]
10 μM lenalidomide, 24 hours, 1 μM bazedoxifene
  degradation of FurON-CAR19 with the HilD tag: almost completely degraded
[1]
  time at which degradation was evident: 4 h
  time to maximal degradation: ≤ 8 h
Construct 769, Western blot
  lowest concentration degrading CAR19-16GS-HilD-tag fusion protein: ≥ 100 nM
